Measured affinities in a library of Ab-14 heavy chain variants

The measurements come from Engelhart et al. 2022 (doi:10.1038/s41597-022-01779-4) through the FLAb antibody collection.

Target peptide (SARS-CoV-2 spike, HR2 region): PDVDLGDISGINAS

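Phage display of a naive human antibody library on the peptide gave the parent. AAYL49 was designed without a model: most single CDR substitutions and a random sample of double and triple ones. Affinity was read by AlphaSeq, a pooled yeast mating assay with surface-displayed partners. Mating (16 h, 30 °C) was followed by selection of diploids and sequencing of their barcodes. Each replicate has its own calibration line, from reference interactions of the BCL2 family. Mating was done three times.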

Parent scFv Ab-14: VH joined to VL by a (GGGGS)3 linker. Changes lie in the heavy chain CDRs alone.
VH: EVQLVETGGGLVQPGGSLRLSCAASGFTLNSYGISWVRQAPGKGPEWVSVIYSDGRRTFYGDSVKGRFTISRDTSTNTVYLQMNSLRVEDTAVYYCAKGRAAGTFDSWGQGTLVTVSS
VL: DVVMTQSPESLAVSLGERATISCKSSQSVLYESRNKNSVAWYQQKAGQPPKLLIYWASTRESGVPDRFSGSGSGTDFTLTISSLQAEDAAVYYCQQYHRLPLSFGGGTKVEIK

Positions count from residue 1 of the parent VH; N30D puts D in place of N. This list gathers variants with a substitution at S35 (VH, numbered from residue 1). Affinities are written as log10 Kd with Kd in nM; a lower number is a better binder. Replicates are averaged; those with no signal do not enter the mean. Where no diploid with the target was found in any replicate, the entry reads "nd": below detection, most likely a poor binder, though not proof of it. Order: sorted from the lowest average up, undetected variants last. Three control strains display no target. For library AAYL49, 15% of the pairings with them gave a signal, with a median of 4.06 and one signal in twenty below 2.83, so weak values seen in few replicates may be background. For reference, the parent read 0.65 as the reference entry and 4.11 (one replicate of three) as a member of this library.

For N30D S35N, the assay gave 0.93 (3 of 3 replicates). The variant S35H D62E V64I showed 2.44 (3 of 3 replicates). With S35L Y60T the result was 2.88 (1 of 3 replicates). With S35E T58K V64N the result was 3.01 (1 of 3 replicates). With S35Q T104S the result was 3.29 (2 of 3 replicates). The variant G33R S35T S53E gave 3.67 (1 of 3 replicates). For S35K V50G, the assay gave 3.84 (1 of 3 replicates).

For S35L Y60R A102K, the assay gave 3.94 (1 of 3 replicates). The variant Y32S S35W Y52T gave 4.20 (1 of 3 replicates). The variant S35M V50C R56W gave 4.20 (1 of 3 replicates). The variant S35V Y52T A102P showed 4.31 (2 of 3 replicates). With S35G G55F the result was 4.31 (2 of 3 replicates). The variant S35C T58I G103R showed 4.49 (3 of 3 replicates). For G26C G33P S35K, the assay gave 4.52 (1 of 3 replicates).

The variant S35E R57A Y60A gave 4.65 (1 of 3 replicates). With S35Y I51E V64I the result was 4.87 (1 of 3 replicates). For G26L S35L G99P, the assay gave 4.93 (1 of 3 replicates). With G26Y S35Q R57E the result was 5.00 (1 of 3 replicates). The variant F27M I34C S35C showed 5.23 (1 of 3 replicates). The variant G26V S35G Y60I gave nd (0 of 3 replicates). For Y32E S35K V50E, the assay gave nd (0 of 3 replicates).

The variant S35G V64A F105C showed nd (0 of 3 replicates). With S35R G103D the result was nd (0 of 3 replicates). The variant N30S S35T S53D showed nd (0 of 3 replicates). The variant S35W G61T R100E gave nd (0 of 3 replicates). The variant F27I S35I F59L gave nd (0 of 3 replicates). The variant S35Q R100W A102E gave nd (0 of 3 replicates). For S35E V50D A102R, the assay gave nd (0 of 3 replicates).

The variant Y32W S35I A102P showed nd (0 of 3 replicates). The variant S35D R56A gave nd (0 of 3 replicates). With G26A S35H R57L the result was nd (0 of 3 replicates). For S35Y R57H A101C, the assay gave nd (0 of 3 replicates). For S35P, the assay gave nd (0 of 3 replicates). The variant I34N S35F I51P showed nd (0 of 3 replicates). For S31K S35V R57W, the assay gave nd (0 of 3 replicates).

For S35M D62R S107H, the assay gave nd (0 of 3 replicates). With S35Y Y60S G61H the result was nd (0 of 3 replicates). With S35E D54Y T104Q the result was nd (0 of 3 replicates). The variant F27C S35Y D106Q showed nd (0 of 3 replicates).

Excerpt, the final 5 entries:

Variant S31K S35V R57W showed nd (0 of 3 replicates).
Variant S35M D62R S107H showed nd (0 of 3 replicates).
Variant S35Y Y60S G61H showed nd (0 of 3 replicates).
Variant S35E D54Y T104Q showed nd (0 of 3 replicates).
Variant F27C S35Y D106Q showed nd (0 of 3 replicates).